Results on one substance are retold here after patent US20140148442A1, “FAST-DISSOLVE DOSAGE FORMS OF 5-HT2C AGONISTS” (Arena Pharmaceuticals, Inc., priority 2010, published 2014).

The nature of this series: Aqueous solubility (UPLC or visual) and final pH.

For the substance “(R)-8-chloro-1-methyl-2,3,4,5-tetrahydro-1H-3-benzazepine hemisulfate salt hydrate”, the “Solubility in water per USP categorization” value is reported as “very soluble (<1 mL water needed to dissolve 1 g)”.
